The record followed here is US4238566A (priority 1980, dated 1980).

By UniProt entry, the sequences of proteins in these tests, tags left out.
UniProt P80457, whole entry: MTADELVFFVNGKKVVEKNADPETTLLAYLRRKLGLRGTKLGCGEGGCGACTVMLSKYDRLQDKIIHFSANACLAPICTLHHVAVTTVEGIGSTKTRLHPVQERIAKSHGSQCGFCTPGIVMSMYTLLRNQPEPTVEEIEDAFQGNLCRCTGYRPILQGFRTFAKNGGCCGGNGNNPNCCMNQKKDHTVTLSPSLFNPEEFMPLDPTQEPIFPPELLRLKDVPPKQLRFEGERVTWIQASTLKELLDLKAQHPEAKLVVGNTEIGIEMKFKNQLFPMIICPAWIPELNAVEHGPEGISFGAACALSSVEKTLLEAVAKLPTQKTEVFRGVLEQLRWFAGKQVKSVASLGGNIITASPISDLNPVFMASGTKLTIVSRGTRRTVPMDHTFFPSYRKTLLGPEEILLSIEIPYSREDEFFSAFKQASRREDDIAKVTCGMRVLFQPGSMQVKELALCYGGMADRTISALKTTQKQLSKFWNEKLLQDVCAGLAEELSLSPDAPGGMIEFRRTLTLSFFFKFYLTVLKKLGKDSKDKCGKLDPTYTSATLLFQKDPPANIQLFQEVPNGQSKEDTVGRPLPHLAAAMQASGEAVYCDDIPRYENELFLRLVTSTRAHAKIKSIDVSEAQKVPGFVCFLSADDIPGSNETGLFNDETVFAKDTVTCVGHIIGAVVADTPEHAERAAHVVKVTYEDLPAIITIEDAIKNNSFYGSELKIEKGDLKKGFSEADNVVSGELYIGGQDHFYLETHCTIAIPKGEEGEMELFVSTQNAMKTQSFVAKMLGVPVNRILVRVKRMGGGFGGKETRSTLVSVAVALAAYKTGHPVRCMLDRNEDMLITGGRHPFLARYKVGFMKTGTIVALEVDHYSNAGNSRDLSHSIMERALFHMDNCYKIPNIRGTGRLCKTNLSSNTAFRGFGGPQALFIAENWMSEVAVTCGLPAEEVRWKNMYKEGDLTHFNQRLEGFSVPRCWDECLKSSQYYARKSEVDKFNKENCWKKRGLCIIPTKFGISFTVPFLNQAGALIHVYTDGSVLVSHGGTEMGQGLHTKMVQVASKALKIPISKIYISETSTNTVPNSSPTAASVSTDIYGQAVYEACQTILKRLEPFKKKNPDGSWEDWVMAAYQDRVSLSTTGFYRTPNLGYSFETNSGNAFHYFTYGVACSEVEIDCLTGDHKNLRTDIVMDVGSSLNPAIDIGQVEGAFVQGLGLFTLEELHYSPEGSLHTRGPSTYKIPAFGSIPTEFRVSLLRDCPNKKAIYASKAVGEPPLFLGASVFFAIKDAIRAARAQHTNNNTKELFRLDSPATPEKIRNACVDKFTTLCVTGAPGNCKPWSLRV

A word on the Ki: it is the equilibrium dissociation constant of an inhibitor or competing ligand from its target.

Common to all, as to type: biochemical
Settings in all cases: read-out: KI with pterin-6-carboxylic acid

For experiment [1], the target named is T1, Bovine milk xanthine oxidase (E.C. 1.2.3.2.), XO concentrate of this invention, E280/E450 ratio 2.0 to 4.1 (Bos taurus, UniProt P80457).
T1 construct: Bovine milk XO was purified using three different methods; from tissue; host or cells: bovine milk (purified in-house by the method of the invention)
Kind of experiment: Kinetic parameters (Km, Vmax, KI) of XO concentrate of this invention. The protocol:
(§1) Bovine milk XO was purified using three different methods and the purified XO enzyme concentrate preparation from each method was assayed for its kinetic parameters.
(§2) The first method used was that of Horecker and Heppel (Methods in Enzymology, Vol. 2, pp. 482-485, 1955). […] The second method was that of Waud et al. (Arch. Biochem. and Biophys., Vol. 169, pp. 695-701, 1975). […] The third method was that described above for the preparation of the XO concentrate of this invention.
(§3) The concentration of the substrate was varied over a gradient of initial concentrations of one to nine millimolar. […] Three replicates of each assay were performed at each concentration of substrate. Buffer pH was monitored constantly and the percent oxygen saturation was maintained at approximately 75%. Lineweaver-Burk and Hanes plots were then constructed from the collected data.
(§4) Lineweaver-Burk and Hanes plots were constructed from the data and both Km and Vmax determined therefrom.
(§5) Experimental conditions for this part of the study were similar to the preceding experiments. […] From the collected data, Lineweaver-Burk plots for competitive inhibition were constructed.

Experiment [2] concerns the target T2, Bovine milk xanthine oxidase (E.C. 1.2.3.2.), XO concentrate by prior art 1 (Horecker and Heppel 1955), E280/E450 ratio 6.1 (Bos taurus, UniProt P80457).
T2 construct: Bovine milk XO was purified using three different methods; from tissue; host or cells: bovine milk (purified in-house by the method of Horecker and Heppel 1955)
Kind of experiment: Kinetic parameters (Km, Vmax, KI) of XO concentrate prepared by prior art method of Horecker and Heppel. As for the experimental part: as §1, §2, §3, §4, §5

The target in experiment [3] is T3, Bovine milk xanthine oxidase (E.C. 1.2.3.2.), XO concentrate by prior art 2 (Waud et al. 1975), E280/E450 ratio 4.8 (Bos taurus, UniProt P80457).
T3 construct: Bovine milk XO was purified using three different methods; from tissue; host or cells: bovine milk (purified in-house by the method of Waud et al. 1975)
Kind of experiment: Kinetic parameters (Km, Vmax, KI) of XO concentrate prepared by prior art method of Waud et al. The protocol:
as §1, §2, §3, §4, §5

For `Nc1nc2ncc(C(=O)O)nc2c(=O)[nH]1` [pterin-6-carboxylic acid], the inhibition constant (Ki) in experiment [1] is 1000 nM; in experiment [2] it was 1500 nM; in experiment [3], 1450 nM.
